Chains of the proteins cited; added tags and fusions are not shown.
UniProt P15428, whole entry: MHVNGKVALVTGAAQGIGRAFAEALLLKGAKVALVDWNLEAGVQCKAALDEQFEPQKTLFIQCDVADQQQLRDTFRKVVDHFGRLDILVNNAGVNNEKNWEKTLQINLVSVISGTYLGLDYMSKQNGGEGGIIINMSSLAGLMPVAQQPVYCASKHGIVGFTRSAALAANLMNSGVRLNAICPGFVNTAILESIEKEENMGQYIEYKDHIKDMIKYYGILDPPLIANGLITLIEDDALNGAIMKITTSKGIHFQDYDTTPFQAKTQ

Where “and” joins values, the source holds several entries; their conditions need not be identical. Equal entries are not always repeated. The list shows a part of the results, in another mix than the full data. Inconclusive results are not listed. Some structures show a salt or complex split into parts, the way the source records it. Calls of active or inactive are those of the source. The call rests on the fitted dose curve; in most records, active means well fitted inhibition curve with a large enough effect (not every such curve was filed as active); inconclusive means small, poorly fitted or top-dose-only effect, or another doubt; inactive means no such curve, though single readings can be large or run the other way.
Each compound was assayed against 15-hydroxyprostaglandin dehydrogenase [NAD(+)] (Homo sapiens) (UniProt P15428) (assay: qHTS Assay for Inhibitors of HPGD (15-Hydroxyprostaglandin Dehydrogenase)). Details: purified HPGD, NADH fluorescence kinetic, PGE2 substrate; activity change, negative = inhibition: active compounds read low.
For `CCC(C)N(CC(C)C)C(=S)SC(NC(C)=O)C(Cl)(Cl)Cl` (configuration not stated), the activity change, negative = inhibition was inactive: -28.6%. For `O=C(O)[C@@H](O)c1ccc([As](=O)(O)O)cc1`, the activity change, negative = inhibition was inactive: -6.31%. `O=C(COc1ccccc1)OC1CN2CCC1CC2` (configuration not stated) was tested, and the activity change, negative = inhibition was inactive: 3.31%. In the case of `[Au].[Au].c1ccc([PH+](c2ccccc2)c2ccccc2)cc1.c1ccc([PH+](c2ccccc2)c2ccccc2)cc1.n1n[nH]c(-c2nnn[nH]2)n1`, the Potency is reported as active: 1.58 µM. In the case of `COP1(=S)c2c(C)nn(CCC#N)c2N=C(c2ccc(F)cc2)N1C` (configuration not stated), the activity change, negative = inhibition is reported as inactive: -16.2%. `CN(N=O)C(=N)N[N+](=O)[O-]` was tested, and the activity change, negative = inhibition was inactive: -7.7%. In the case of `CP(=O)(Nc1ccccc1Br)Oc1ccccc1` (configuration not stated), the Potency is reported as active: 11.2 µM. In the case of `O=[N+]([O-])c1cc([N+](=O)[O-])c(-c2ccn[nH]2)s1`, the activity change, negative = inhibition is reported as inactive: -7.14%. For `CCN(CC)C(=S)SC(NC=O)C(Cl)(Cl)Cl` (configuration not stated), the activity change, negative = inhibition was inactive: -14.2%. With `O=[As]c1ccc(S(=O)(=O)NCCO)cc1` (configuration not stated) the activity change, negative = inhibition was inactive: -12.4%. In the case of `ClCCSc1nnc(-c2cccnc2)o1`, the activity change, negative = inhibition is reported as inactive: -28.2%. With `Cc1ccc2nc3c(c(C)c2c1)CC(C(Cl)Cl)S3` (configuration not stated) the activity change, negative = inhibition was inactive: -19.3%. With `NC(=O)Nc1cc([As](=O)(O)O)cc(I)c1O` the activity change, negative = inhibition was inactive: 1.79%. For `c1ccc(P(c2ccccc2)c2ccccc2)cc1`, the activity change, negative = inhibition was inactive: -5.59%. For `O=C(OC1CN2CCC1CC2)C12CC3CC(CC(C3)C1)C2` (configuration not stated), the activity change, negative = inhibition was inactive: -10.8%. In the case of `Cc1ccc(NCCc2c([N+](=O)[O-])cc([N+](=O)[O-])cc2[N+](=O)[O-])cc1`, the activity change, negative = inhibition is reported as inactive: -5.68%. For `O=C(CC(=O)c1ccccc1)O[C@H]1CN2CCC1CC2`, the activity change, negative = inhibition was inactive: -11.9%. In the case of `NS(=O)(=O)Cc1ccc([As](=O)(O)O)cc1`, the activity change, negative = inhibition is reported as inactive: -2.6%. With `Cc1ccc(C)c(NP(C)(=O)Oc2ccccc2)c1` (configuration not stated) the Potency was active: 28.2 µM. `Cc1cccc(OCC(=O)OC2CN3CCC2CC3)c1` (configuration not stated) was tested, and the activity change, negative = inhibition was inactive: 1.01%. `CN(C(=O)Cc1ccc(Cl)c(Cl)c1)[C@@H]1CC[C@]2(CCCO2)C[C@H]1N1CCCC1` was tested, and the activity change, negative = inhibition was inactive: -11.9%. For `CCOP1(=S)c2c(C)nn(CCC#N)c2N=C(c2ccc(F)cc2)N1C` (configuration not stated), the activity change, negative = inhibition was inactive: -14.8%. With `CN(C(=O)Cc1ccccc1)[C@@H]1CC[C@]2(CCCO2)C[C@H]1N1CCCC1` the activity change, negative = inhibition was inactive: -25.5%. For `O=[N+]([O-])c1ccc2c(c1)nnn2O`, the activity change, negative = inhibition was inactive: -21%. In the case of `O=[N+]([O-])CC(O)c1ccc([N+](=O)[O-])cc1` (configuration not stated), the activity change, negative = inhibition is reported as inactive: -27.6%. `NC(=O)Nc1ccc([As](=O)(O)O)cc1` was tested, and the activity change, negative = inhibition was inactive: -8.17% and inactive: -7.51%. In the case of `O=[As](O)(O)c1ccc([As](=O)(O)O)cc1`, the activity change, negative = inhibition is reported as inactive: 4.38%. `CCOP1(=S)c2c(C)nn(CCC#N)c2N=C(c2ccccc2F)N1C` (configuration not stated) was tested, and the activity change, negative = inhibition was inactive: -3.22%. In the case of `Cc1ccc(OCC(=O)OC2CN3CCC2CC3)cc1` (configuration not stated), the activity change, negative = inhibition is reported as inactive: -2.19%. For `CN1CCCCC1COC(=O)C1(O)c2ccccc2CCc2ccccc21` (configuration not stated), the activity change, negative = inhibition was inactive: -9.76%. With `Cc1nn(-c2ccccc2)c2c1P(=O)(N1CCOCC1)N(C)C(c1ccccc1)=N2` (configuration not stated) the activity change, negative = inhibition was inactive: -6.51%. In the case of `COc1cc(C2NCCC3(OCCO3)C2(C)C)cc(OC)c1OC.O=[N+]([O-])c1cc([N+](=O)[O-])c(O)c([N+](=O)[O-])c1` (configuration not stated), the activity change, negative = inhibition is reported as inactive: -0.336%. For `CN(C(=O)Cc1ccc(Cl)c(Cl)c1)[C@@H]1CCCC[C@H]1N1CCCC1`, the activity change, negative = inhibition was inactive: -25.2%. In the case of `CN(CCCl)Cc1cc(Cl)c(NC2=NCCN2)c(Cl)c1`, the activity change, negative = inhibition is reported as inactive: -12.7%. `C[C@@H](O)COc1ccc([As](=O)(O)O)cc1N` was tested, and the activity change, negative = inhibition was inactive: 0.0241%. With `CCN(CCCl)Cc1ccccc1C` the activity change, negative = inhibition was inactive: -15%. With `Cc1ccccc1NP(C)(=O)Nc1ccccc1C` the Potency was active: 8.91 µM. `CP(=O)(Nc1ccc2c(c1)OCCO2)Oc1ccccc1` (configuration not stated) was tested, and the Potency was active: 10 µM. With `CN1CCC[C@H](OC(=O)C(c2ccccc2)c2ccccc2)C1` the activity change, negative = inhibition was inactive: -2.35%. For `c1nnnn1CCn1cnnn1`, the activity change, negative = inhibition was inactive: 2.23%. In the case of `CC(C)C(=O)NC(Sc1ccccc1)C(Cl)(Cl)Cl` (configuration not stated), the activity change, negative = inhibition is reported as inactive: -5.92%. In the case of `O=P(Nc1nccs1)(c1ccccc1)c1ccccc1`, the activity change, negative = inhibition is reported as inactive: -7.12%. For `O=C(OC1CN2CCC1CC2)c1cccc(Cl)c1` (configuration not stated), the activity change, negative = inhibition was inactive: 4.08%. For `C(Cc1nn[nH]n1)Cc1nn[nH]n1`, the activity change, negative = inhibition was inactive: -13.6%. In the case of `CCN(CCO)CCO.Oc1c(Cl)c(Cl)c(Cl)c(Cl)c1Cl`, the Potency is reported as active: 4.47 µM. In the case of `CC(=O)NC(SC(=S)N(C)C)C(Cl)(Cl)Cl` (configuration not stated), the activity change, negative = inhibition is reported as inactive: -9.64%. For `[N-]=[N+]=Nc1ccc([As](=O)(O)O)cc1`, the activity change, negative = inhibition was inactive: -8.15%. For `Cc1cc([N+](=O)[O-])cc([N+](=O)[O-])c1O`, the activity change, negative = inhibition was inactive: -4.4%. In the case of `CN(C)CCOC(=O)C(O)(c1ccccc1)C1CCCCC1` (configuration not stated), the activity change, negative = inhibition is reported as inactive: -0.522%. `CP(=O)(Nc1ccccc1)Oc1ccc(F)cc1` (configuration not stated) was tested, and the Potency was active: 31.6 µM. For `CCN(CC)CCCOC(=O)C(O)(c1ccccc1)C1CCCCC1` (configuration not stated), the activity change, negative = inhibition was inactive: 2.74%. `CCC(=O)N1C2C3N(C(=O)CC)C1C1N(C(=O)CC)C(C(N1C(=O)CC)N3C(=O)CC)N2C(=O)CC` was tested, and the activity change, negative = inhibition was inactive: -0.124%. In the case of `CN(C(=O)Cc1ccc(Cl)c(Cl)c1)[C@@H]1CCCC[C@@H]1N1CCCC1`, the activity change, negative = inhibition is reported as inactive: -12.9%. With `CC(=O)NC(SC(=S)N(CC(C)C)CC(C)C)C(Cl)(Cl)Cl` (configuration not stated) the activity change, negative = inhibition was inactive: -9.53%. For `COC(=O)c1cc2c(s1)N=C(c1ccccc1)N(C)P2(=O)N1CCOCC1` (configuration not stated), the activity change, negative = inhibition was inactive: -17.8%. With `CCOC(=O)c1ccc(NP(C)(=O)Oc2ccc(F)cc2)cc1` (configuration not stated) the Potency was active: 17.8 µM. With `CCOC(=O)NC(Sc1ccccc1)C(Cl)(Cl)Cl` (configuration not stated) the activity change, negative = inhibition was inactive: -1.42%. In the case of `O=C(OCCN1CCN(CCOCc2ccccc2)CC1)C(O)(c1ccccc1)c1ccccc1`, the activity change, negative = inhibition is reported as inactive: 2.77%. In the case of `CP(=O)(Nc1ccccc1F)Oc1ccccc1` (configuration not stated), the Potency is reported as active: 7.08 µM. `O=P1(Nc2nc3ccc(Cl)cc3s2)COc2ccccc2O1` (configuration not stated) was tested, and the activity change, negative = inhibition was inactive: -13.1%. With `NCC[C@@H](N)CSP(=O)(O)O` the activity change, negative = inhibition was inactive: 1%. In the case of `COc1ccccc1OP(C)(=O)Nc1ccc(C)cc1C` (configuration not stated), the Potency is reported as active: 1.58 µM. In the case of `Cc1c2non([O-])c-2c(C)[n+](=O)[n+]1[O-]`, the activity change, negative = inhibition is reported as inactive: -17.8%. `CC(C)CC(=O)NC(Sc1ccc(Cl)cc1)C(Cl)(Cl)Cl` (configuration not stated) was tested, and the activity change, negative = inhibition was inactive: -11.6%. With `CN(C)CCOC(=O)C(O)(c1ccccc1)C1CCCC1` (configuration not stated) the activity change, negative = inhibition was inactive: -5.67%. For `CN1CCCC(OC(=O)C(c2ccccc2)c2ccccc2)C1` (configuration not stated), the activity change, negative = inhibition was inactive: -7.67%. In the case of `O=[N+]([O-])c1ccc(C[As](=O)(O)O)cc1`, the activity change, negative = inhibition is reported as inactive: -5.63%. In the case of `CCN(N=Nc1nonc1N)c1nonc1N`, the activity change, negative = inhibition is reported as inactive: -8.39%. With `C(Cc1nn[nH]n1)c1nn[nH]n1` the activity change, negative = inhibition was inactive: -1.81%. For `CCOP(=O)(Nc1ccccc1)OCC`, the activity change, negative = inhibition was inactive: -5.13%. For `O=C(CO)Nc1ccc([As](=O)(O)O)cc1`, the activity change, negative = inhibition was inactive: -6.24%. `CC1CCN(C(=O)Oc2c(Cl)cc(Cl)c3cccnc23)CC1` was tested, and the activity change, negative = inhibition was inactive: -2.81%. `CC(=O)C1=CCCC2CCC1N2` (configuration not stated) was tested, and the activity change, negative = inhibition was inactive: -7.89%. For `CN(C)C(=O)OCCc1n(C)cc[n+]1C`, the activity change, negative = inhibition was inactive: -1.82%. `O=[N+]([O-])c1cccc2n[nH]nc12` was tested, and the activity change, negative = inhibition was inactive: -10.1%. For `CC(=O)N1C2C3N(C(C)=O)C1C1N(C(C)=O)C(C(N1C(C)=O)N3C(C)=O)N2C(C)=O`, the activity change, negative = inhibition was inactive: -4.49%. `CCN(CC)CC(O)COC(=O)C(O)(c1ccccc1)C1CCCCC1` (configuration not stated) was tested, and the activity change, negative = inhibition was inactive: -0.91%.

Source: PubChem BioAssay AID894 (National Center for Advancing Translational Sciences (NCATS), 2007)
On the % scale 0 is the no-effect control and ±100 the full control effect; potency means the concentration at half of the fitted maximal effect.
Wherever activity change, negative = inhibition is given: test concentration not given here.
